Test results reported in ChEMBL document CHEMBL2440059, “Antiproliferative, antiandrogenic and cytotoxic effects of novel caffeic acid derivatives in LNCaP human androgen-dependent prostate cancer cells” (Bioorg Med Chem, 2013).

Test system: LNCaP
Assay: Antiandrogenic activity in human LNCAP cells assessed as reduction in DHT-stimulated PSA release after 24 hrs by ELISA
Format: functional, cell-based

O=C(/C=C/c1ccc(O)c(O)c1)OCCC1CCCCC1
inhibition: Dose-dependent effect

O=C(/C=C/c1ccc(O)c(O)c1)OCCc1ccccc1 [CAFFEIC ACID PHENETHYL ESTER]
inhibition: Dose-dependent effect
